Tested on: SERT
Test: SERT binding, inhibition of [3H]paroxetine
Conditions: ratio of Ki values taken from reference 21

CCOC(=O)C1(c2ccccc2)CCN(C)CC1.Cl [Compound 1, meperidine, reference compound]
DAT/SERT: 43
